Laboratory results: article PMC2895766 (2010)

By UniProt entry, the sequences of proteins in these tests, tags left out.
UniProt P31645, whole entry: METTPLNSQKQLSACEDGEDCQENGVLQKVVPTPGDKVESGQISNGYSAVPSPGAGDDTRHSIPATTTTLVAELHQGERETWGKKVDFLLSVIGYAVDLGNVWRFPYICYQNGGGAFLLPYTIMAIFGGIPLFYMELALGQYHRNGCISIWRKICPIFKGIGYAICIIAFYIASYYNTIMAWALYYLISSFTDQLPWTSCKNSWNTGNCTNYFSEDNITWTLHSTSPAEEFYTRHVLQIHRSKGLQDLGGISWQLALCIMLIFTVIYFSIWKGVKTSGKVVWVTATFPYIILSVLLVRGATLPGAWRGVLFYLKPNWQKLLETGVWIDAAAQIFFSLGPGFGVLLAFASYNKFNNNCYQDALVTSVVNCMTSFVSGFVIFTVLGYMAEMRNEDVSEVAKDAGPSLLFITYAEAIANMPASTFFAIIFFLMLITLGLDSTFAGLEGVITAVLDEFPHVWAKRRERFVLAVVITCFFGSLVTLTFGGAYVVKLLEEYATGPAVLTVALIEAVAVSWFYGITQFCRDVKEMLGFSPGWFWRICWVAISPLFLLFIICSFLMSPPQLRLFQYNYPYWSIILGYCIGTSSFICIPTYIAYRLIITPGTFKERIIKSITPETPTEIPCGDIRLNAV

Biological target: human 5HT transporters [(h)SERT] (Homo sapiens, UniProt P31645)
Assay: Inhibition of [3H]serotonin uptake in HEK293 cells expressing hSERT

## C[C@@H]1NC(C)(C)CO[C@@]1(O)c1cccc(Cl)c1 [(2S,3S)-4a, (2S,3S)-2-(3-Chlorophenyl)-3,5,5-trimethylmorpholin-2-ol]
  monoamine uptake inhibition IC50 [3H]5HT: inactive
